# What was measured:
# FaDu cells = test: qRT-PCR of DNA damage repair and nucleotide excision repair-related genes, FaDu cells; format: cell-based; conditions: for Relative expression, 53BP1: 53BP1, 4h; for Relative expression, CCNH: 4h; for Relative expression, Ercc1: Ercc1, 4h; for Relative expression, Ercc4: Ercc4, 4h; for Relative expression, Ercc5: Ercc5, 4h; for transcription of CCNH, ERCC1, ERCC4/XPF, ERCC5/XPG and 53BP1: FaDu, 10 µM
# Method: To determine the gene expression patterns of FaDu and A549 cells, candidalysin-treated cells were washed with pre-warmed PBS and collected after addition of RNAlater (Beyotime, # R0118-100ml) before RNA isolation with a RNeasy Mini Kit (Qiagen, #74106). After determination of the purity and concentration of RNA by Nanodrop, the cDNA was obtained by a PrimeScript™ RT reagent Kit (Perfect Real Time) (Takara, #RR037A). Real-time PCR was then performed with 2x SYBR Green qPCR Master Mix (Bimake, # B21203) in a Biorad CFX96 thermocycler (CFX96 Touch Real-Time PCR Detection System). Primers used are as follows: ERCC1-internal-F (5′-[…]-3′) and ERCC1-internal-R (5′-[…]-3′), ERCC4-internal-F (5′-[…]-3′) and ERCC4-internal-R (5′-[…] −3′), ERCC5-internal-F (5′-[…]-3′) and ERCC5-internal-R (5′-[…]-3′), 53BP1-internal-F (5′-[…]-3′) and 53BP1-internal-R (5′-[…]-3′), β-actin-internal-F (5′-[…]-3′) and β-actin-internal-R (5′-[…]-3′), CCNH-internal-F (5′-[…]-3′) and CCNH-internal-R (5′-[…]-3′), IL-1α-internal-F (5′-[…]-3’) and IL-1α-internal-R (5′-[…]-3′), IL-6-internal-F (5′-[…]-3′) and IL-6-internal-R (5′-[…]-3′), RHOA-internal-F (5′-[…]-3′) and RHOA-internal-R (5′- […]-3′).
# mouse tongue tissue = test: Histopathology (H&E, PAS) and immunohistochemistry (H-Score of CCNH and γ-H2AX) of tongue tissue; format: in vivo, BALB/c mice; conditions: 70 μM candidalysin swab 75 min, Day 5
# Method: After anesthetization (Day 1), mice were infected with WT, ece1Δ/Δ, ece1Δ/Δ+ECE1 and ece1Δ/Δ+ECE1^Δ184-279 C. albicans, or treated with 70 μM of candidalysin or PBS (Ctrl). After 5 days (Day 5), mice were euthanized. The tongue was excised and divided into two halves longitudinally for fungal load quantification and immunohistochemistry assay. Food-burial seeking tests were performed on the Day 0 and Day 5. b The colony forming units (CFUs) per gram of tongue tissue from mice colonized with WT, ece1Δ/Δ, ece1Δ/Δ+ECE1, and ece1Δ/Δ+ECE1^Δ184-279 strains of C. albicans, and mice challenged with candidalysin or treated with PBS (Ctrl) (n = 6 mice). Data was shown as median with interquartile range. The P value was determined by one-way ANOVA with Tukey’s post-hoc tests. […] The P value was determined by one-way ANOVA with Tukey’s post-hoc tests. *P = 0.0243; ****P < 0.0001. d Histopathology and immunohistochemistry assay of tongue tissues. Pathology and fungal infection in tongue tissues were assessed by H&E and PAS staining, respectively. The expression of CCNH and γ-H2AX was assessed in situ by immunohistochemistry assay (IHC). […] Images are from the same tissues. e Quantification of CCNH and γ-H2AX expression in immunohistochemistry assay (n = 6 mice). […]
# CHO-K1 cells = test: Cell activity assay and cytotoxicity LDH assay, CHO-K1 cells; format: cell-based
# Method: Cells were deposited into 96-well plates and incubated at 37 °C with 5% CO2. Prior to the cell damage assay, cells were starved in serum-free medium overnight. Cytotoxicity LDH Assay Kit-WST (Dojindo, #CK12) was applied to determine the lactate dehydrogenase (LDH) activity released from cells that were damaged by candidalysin for 2 h or 4 h according to the manufacturer’s instructions.
# CHO-K1 cells were deposited into 96-well plates and incubated at 37 °C with 5% CO2. Before the viability assay, cells were starved in serum-free F12K medium overnight. Calcein/PI Cell Viability/Cytotoxicity Assay Kit (DOJINDO, C542) was applied to determine the cell viability that were treated by candidalysin for 4 h.
smiles,measurement,setting,value
CC[C@H](C)[C@H](NC(=O)CNC(=O)[C@H](CCSC)NC(=O)[C@@H](NC(=O)[C@@H](NC(=O)CNC(=O)[C@@H](NC(=O)[C@@H](NC(=O)[C@@H](N)CO)[C@@H](C)CC)[C@@H](C)CC)[C@@H](C)CC)[C@@H](C)CC)C(=O)N[C@@H](CC(C)C)C(=O)NCC(=O)N[C@@H](CC(N)=O)C(=O)N[C@H](C(=O)N1CCC[C@H]1C(=O)N[C@@H](CCC(N)=O)C(=O)N[C@H](C(=O)N[C@H](C(=O)N[C@@H](CCC(N)=O)C(=O)N[C@H](C(=O)N[C@H](C(=O)N[C@@H](CCSC)C(=O)N[C@@H](CO)C(=O)N[C@H](C(=O)N[C@H](C(=O)N[C@@H](CCCCN)C(=O)N[C@@H](C)C(=O)N[C@@H](Cc1ccccc1)C(=O)N[C@@H](CCCCN)C(=O)NCC(=O)N[C@@H](CC(N)=O)C(=O)N[C@@H](CCCCN)C(=O)O)C(C)C)[C@@H](C)CC)[C@@H](C)CC)[C@@H](C)CC)[C@@H](C)CC)C(C)C)[C@@H](C)CC [Ece1-III],"Relative expression, 53BP1",FaDu cells; replicate 1,1.705
same,"Relative expression, 53BP1",FaDu cells; replicate 2,1.7025
same,"Relative expression, 53BP1",FaDu cells; replicate 3,1.775
same,"Relative expression, CCNH",FaDu cells; replicate 1,2.9884
same,"Relative expression, CCNH",FaDu cells; replicate 2,2.6626
same,"Relative expression, CCNH",FaDu cells; replicate 3,2.808
same,"Relative expression, Ercc1",FaDu cells; replicate 1,15.6441
same,"Relative expression, Ercc1",FaDu cells; replicate 2,14.2201
same,"Relative expression, Ercc1",FaDu cells; replicate 3,15.2277
same,"Relative expression, Ercc4",FaDu cells; replicate 1,8.4146
same,"Relative expression, Ercc4",FaDu cells; replicate 2,8.1376
same,"Relative expression, Ercc4",FaDu cells; replicate 3,8.5305
same,"Relative expression, Ercc5",FaDu cells; replicate 1,5.6196
same,"Relative expression, Ercc5",FaDu cells; replicate 2,5.9126
same,"Relative expression, Ercc5",FaDu cells; replicate 3,5.7838
same,"transcription of CCNH, ERCC1, ERCC4/XPF, ERCC5/XPG and 53BP1",FaDu cells; 4 h,upregulated
same,"transcription of CCNH, ERCC1, ERCC4/XPF, ERCC5/XPG and 53BP1",FaDu cells; 24 h,transcriptionally suppressed
same,CCNH and γ-H2AX expression in tongue tissue (IHC),mouse tongue tissue,increased expression of CCNH and γ-H2AX
same,Cell damage (%),"CHO-K1 cells; 10μM, replicate 1",0.2556%
same,Live Cells (%),"CHO-K1 cells; 10μM, replicate 1",99.149%
same,Cell damage (%),"CHO-K1 cells; 10μM, replicate 2",2.301%
same,Live Cells (%),"CHO-K1 cells; 10μM, replicate 2",99.5607%
same,Cell damage (%),"CHO-K1 cells; 10μM, replicate 3",7.209%
same,Live Cells (%),"CHO-K1 cells; 10μM, replicate 3",99.6668%
same,Cell damage (%),"CHO-K1 cells; 10μM, replicate 4",2.71%
same,Live Cells (%),"CHO-K1 cells; 10μM, replicate 4",99.1683%
same,Live Cells (%),"CHO-K1 cells; 10μM, replicate 5",99.5551%
same,Cell damage (%),"CHO-K1 cells; 80μM, replicate 1",94.1718%
same,Live Cells (%),"CHO-K1 cells; 80μM, replicate 1",9.9577%
same,Cell damage (%),"CHO-K1 cells; 80μM, replicate 2",91.3088%
same,Live Cells (%),"CHO-K1 cells; 80μM, replicate 2",7.472%
same,Cell damage (%),"CHO-K1 cells; 80μM, replicate 3",80.6749%
same,Live Cells (%),"CHO-K1 cells; 80μM, replicate 3",7.761%
same,Cell damage (%),"CHO-K1 cells; 80μM, replicate 4",90.6953%
same,Live Cells (%),"CHO-K1 cells; 80μM, replicate 4",17.719%
same,cytotoxicity,"CHO-K1 cells; CHO-K1, 10 μM, 4 h",not

# From article PMC10899660, “Global fungal-host interactome mapping identifies host targets of candidalysin” (Nature Communications, 2024)
